This is a selection; strong and weak results do not stand in their true shares. Some tests of the compounds listed are not included; inactive here does not mean inactive elsewhere. Activity calls are given as the source filed them. No stated cut-off is given here; in the data, active means inhibition above about 50%; inactive means the rest.
System: YopH tyrosine phosphatase [Yersinia enterocolitica]
Assay: inhibition of Yersinia YopH phosphatase – biochemical, fluorescence Ex485/Em525, primary screen (AID 898)
Details: active compounds read high, concentration not given here

**Q.** `CN(C)c1cccc(C(=O)NCC2(N(C)C)CCCCC2)c1` was tested. Which inhibition did it give?
**A.** inactive: -40.1%

**Q.** With `O=C(OC1CN2CCC1CC2)C(CO)(c1ccccc1)c1ccccc1` (stereo not given) as the molecule, how does the inhibition read?
**A.** inactive: 8.38%

**Q.** With `CC(C)N1C(=O)CC2(CCN(CCOC(=O)C(O)(c3ccccc3)c3ccccc3)CC2)C1=O` as the molecule, how does the inhibition read?
**A.** inactive: -2.53%

**Q.** `CCN1CCCC(OC(=O)C2(O)c3ccccc3C=Cc3ccccc32)C1` (stereo not given) was tested. Which inhibition did it give?
**A.** inactive: -39.5%

**Q.** For `CN(C)C1CCCC1OC(=O)C(O)(c1ccccc1)c1ccccc1` (stereo not given), which inhibition is on record?
**A.** inactive: -27.2%

From PubChem BioAssay AID898 (University of Pittsburgh Molecular Library Screening Center, 2007)
